Reference: ChEMBL document CHEMBL3886850, “Carboxamide derivatives” (2016)

Assay: Biochemical Assay: For the biochemical assay panel, 50 nl of the test compounds, reference compounds and buffer/DMSO control are transferred to the respective wells of a 384-well white GREINER "SMALL VOLUME" PS plate. The assay panel is run at room temperature on a Biomek FX liquid handling workstation. To the assay plates containing 50 nl compound or control solutions in 90% DMSO, 4.5 ul of E3 ligase solution were added per well, followed by 4.5 ul of the pre-incubated E1/E2/Ub mix or the pre-diluted ubiquitin (LOW control). Plates are shaken vigorously after each addition. In this assay the compound concentrations range from 3 nM to 10 uM in an 8-point dose-response curve. After 45 min of incubation the ubiquitinylation reactions were stopped by adding 4.5 ul 2 mM NEM, immediately followed by 4.5 ul of a detection solution including the XL665-labeled antibody and the streptavidin-coupled europium to give a total volume of 18 ul. After an incubation time of 45 min in the dark, the plates are transferred into the Pherastar fluorescence reader to measure the TR-FRET signal.

Cc1c(C(=O)Nc2c(C)n(C)n(C3CCCCC3)c2=O)noc1[C@@H]1OC[C@@H](C(C)(C)C)O1
IC50: 840 nM
